Experimental data taken from patent publication US7294496B1, “Cloned human lysophospholipase” (The Regents of the University of California, priority 2000, dated 2007).

The chains behind the UniProt entries cited, without tags or fusion partners.
UniProt O75608, whole entry F152L: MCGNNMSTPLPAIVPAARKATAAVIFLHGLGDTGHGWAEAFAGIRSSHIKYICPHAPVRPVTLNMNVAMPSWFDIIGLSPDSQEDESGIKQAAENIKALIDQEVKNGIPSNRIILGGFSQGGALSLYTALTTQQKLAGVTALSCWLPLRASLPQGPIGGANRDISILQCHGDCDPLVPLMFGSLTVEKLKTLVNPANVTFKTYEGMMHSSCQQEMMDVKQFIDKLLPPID
UniProt P97823, whole entry: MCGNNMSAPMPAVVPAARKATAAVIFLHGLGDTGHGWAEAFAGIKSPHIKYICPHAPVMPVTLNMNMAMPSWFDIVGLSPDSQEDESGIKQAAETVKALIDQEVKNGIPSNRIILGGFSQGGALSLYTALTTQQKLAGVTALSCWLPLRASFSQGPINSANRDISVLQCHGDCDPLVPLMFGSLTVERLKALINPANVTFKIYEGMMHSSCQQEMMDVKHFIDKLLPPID

What was measured:
[1] = molecular target: human recombinant LysoPLA (Homo sapiens, UniProt O75608, F152L); assay: Inhibition of human LysoPLA; format: biochemical
mouse LysoPLA = mouse LysoPLA (Mus musculus, UniProt P97823); assay: Inhibition of mouse LysoPLA; conditions: mouse enzyme, 125 μM LysoPC; similar results as human enzyme
Protocol: Various concentrations of each inhibitor (BioMol) were prepared in DMSO. 5 μl of each inhibitor was added to 480 μl of LysoPC substrate (125 μM Ly-soPC in the assay buffer). Enzyme (either mouse or human PLA) was added to the substrate-inhibitor mixture to start the reaction, which was incubated at 40° C. for 30 min. Control experiments were performed with the same amount of enzyme with 5 μl DMSO in the incubation mixture. The reversibility of the inhibition was tested by pre-incubation of the enzyme in the presence or absence of the inhibitor, followed by overnight dialysis in the assay buffer. The recovery of the enzyme activity as a function of time was then followed. Each data point represents an average of duplicates.

In the case of `CCCCC/C=C\C/C=C\C/C=C\C/C=C\CCCCOP(=O)(F)OC` (stereo not shown), the reversibility of inhibition ([1]; enzyme and inhibitor mixture assayed after overnight dialysis) is reported as “irreversible”, the “inhibition of LysoPLA activity (in words)” value ([1]; human enzyme, 125 μM LysoPC) is reported as “most potent one” and the IC50 ([1]; read-out: apparent IC50, 125 μM LysoPC, 40° C., 30 min (FIG. 5)) is reported as 600 nM. For the same compound, the “inhibition of LysoPLA activity (in words)” value (mouse LysoPLA) was “most potent one”.
